## Binding of CDR-mutated scFvs to a peptide of the spike HR2 region

Data: MIT Lincoln Laboratory AlphaSeq set, Li et al. 2023, doi:10.1038/s41467-023-39022-2, as distributed in FLAb.

The target is the same throughout: PDVDLGDISGINAS, from the HR2 region of SARS-CoV-2 spike.

Parent: Ab-14, a human scFv built as VH, a (GGGGS)3 linker, VL. Only the CDRs of the light chain vary.
VH: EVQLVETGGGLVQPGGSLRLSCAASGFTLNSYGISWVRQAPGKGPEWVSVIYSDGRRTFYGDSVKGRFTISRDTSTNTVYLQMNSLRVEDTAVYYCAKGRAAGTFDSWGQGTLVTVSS
VL: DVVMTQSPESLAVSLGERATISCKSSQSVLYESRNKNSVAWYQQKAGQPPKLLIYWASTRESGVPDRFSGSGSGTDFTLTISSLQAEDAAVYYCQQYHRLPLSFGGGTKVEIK

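This is the validation round: designs drawn from the data on random variants, tested in the same kind of assay. Their group label is 14L_GP_Gen (GP: Gaussian process model; Gen: genetic algorithm; a sequence that several methods proposed may carry one label only). The scFvs were displayed on barcoded MATa yeast, the peptide on MATalpha yeast. Mating (16 h, 30 °C) was followed by selection of diploids and sequencing of their barcodes. Scores were corrected for input abundance and mapped to Kd with protein pairs of known affinity run in the same pool. There are six technical replicates.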

Substitutions are numbered in sequence along the VL above, starting at 1 (not Kabat). Numbers give log10(Kd / nM), so 0 is 1 nM and 3 is 1 µM. Smaller is tighter. An entry "ND" has no value in the source: the pair was not observed among the diploids in that replicate. This suggests poor binding but is not conclusive. In the paper, a design with two or fewer of six values counts as a poor binder. A sequence measured in both rounds can read differently, since the two assays cover different ranges. The parent sequence was in this pool as ten entries: three were never detected, three once, and four in most replicates, with averages from 0.34 to 2.37. Empty control strains, which show no peptide, gave a signal in 4% of pairings with all light chain designs; the median was 2.64 and 95% of these signals were weaker than 1.59. No background was subtracted. The control count says in how many pairings with the empty strains this scFv gave a signal, with their mean in brackets.

changes	log10 Kd, replicates	control signals
S25L/V29Y/W56N/S103M	-0.15 / -0.38 / -0.47 / -0.33 / -0.20 / -0.28	3 of 18 (2.36)
S25V/V29Q/S38N/W56N	-0.25 / -0.63 / -0.56 / -0.40 / -0.49 / -0.45	2 of 18 (2.38)
S25L/V29E/W56S/T59Q/E61L	-0.08 / -0.08 / -0.09 / -0.18 / -0.18 / -0.12	1 of 18 (4.33)
S25L/S26Q/W56N/S62Q	-0.07 / -0.27 / -0.34 / -0.38 / -0.19 / -0.17	1 of 18 (2.68)
S25V/K36W/W56E	0.23 / 0.21 / 0.12 / -0.02 / 0.04 / 0.29	1 of 18 (3.17)
S25L/Q27W/V29W/W56N	-0.37 / -0.48 / -0.33 / -0.63 / -0.61 / -0.37	1 of 18 (3.25)
S25L/S26P/V29N/W56N	0.04 / -0.12 / -0.19 / -0.25 / -0.28 / -0.10	2 of 18 (3.07)
V29W/W56N/S62Q	-0.35 / -0.33 / -0.72 / -0.83 / -0.49 / -0.49	0 of 18
K24V/S25L/W56N/E61M	-0.29 / -0.21 / -0.20 / -0.30 / 0.03 / -0.22	1 of 18 (2.85)
S25L/S26Y/V29W/W56N/T59Q	-0.08 / -0.21 / -0.23 / -0.65 / -0.14 / 0.11	2 of 18 (2.26)
S25L/S33Q/W56N/Q96D	-0.03 / -0.16 / 0.06 / -0.11 / -0.10 / 0.13	1 of 18 (3.95)
K24H/S25L/S33D/W56N	0.10 / -0.03 / -0.12 / -0.20 / 0.00 / 0.02	3 of 18 (2.39)
S25L/V29M/W56H/E61M	0.10 / 0.06 / -0.11 / -0.03 / 0.11 / 0.25	1 of 18 (2.84)
S25I/V29E/W56N	0.11 / -0.18 / -0.06 / -0.40 / -0.06 / -0.08	0 of 18
S25V/V29E/W56N/S103Q	0.05 / -0.27 / -0.19 / -0.35 / -0.41 / -0.09	1 of 18 (2.12)
S25L/V29E/N35M/W56N	0.01 / 0.05 / -0.14 / -0.17 / -0.12 / 0.15	2 of 18 (2.81)
S25L/V29W/L30E/W56N/T59Q/S62Q	0.24 / -0.12 / 0.06 / -0.17 / 0.23 / 0.16	0 of 18
S25L/S26E/W56N	-0.18 / -0.13 / -0.30 / -0.45 / -0.09 / -0.27	0 of 18
S25F/W56N/T59Q/Q96D	0.33 / -0.21 / -0.53 / -0.35 / 0.33 / 0.67	0 of 18
S25V/S26Q/V29Q/W56N/T59Q	0.46 / 0.32 / 0.42 / 0.52 / 0.24 / 0.66	1 of 18 (2.52)
S25L/S26Q/W56N/S62M	-0.80 / -0.41 / -0.59 / -0.82 / -0.86 / -0.64	1 of 18 (0.72)
S25L/S26Q/V29E/L30Q/W56S	-0.12 / -0.24 / -0.34 / -0.36 / -0.26 / -0.16	1 of 18 (2.61)
S25L/S26P/V29E/W56N/T59Q/E61L	-0.27 / 0.08 / 0.05 / -0.04 / 0.28 / 0.71	0 of 18
S25L/V29D/W56G/E61C	0.16 / -0.03 / 0.22 / 0.01 / -0.16 / 0.09	1 of 18 (1.07)
S25L/S26M/V29Q/W56N/E61M	0.07 / 0.04 / -0.11 / -0.13 / 0.03 / 0.16	0 of 18
S25L/N35M/W56N/E61C	0.05 / -0.08 / -0.13 / -0.15 / -0.06 / 0.10	0 of 18
S25L/K36A/S38N/W56E	-0.42 / -0.44 / -0.62 / -0.61 / -0.22 / -0.54	1 of 18 (1.86)
S25L/V29E/S38N/W56N/T59Q	-0.02 / -0.26 / -0.43 / -0.59 / -0.30 / -0.04	1 of 18 (2.93)
S25L/S26Y/V29H/W56Q	1.93 / 1.05 / 0.86 / 1.00 / 1.67 / 2.52	0 of 18
S25L/Q27M/V29G/W56N	-0.22 / -0.39 / -0.33 / -0.45 / -0.35 / -0.13	0 of 18
S25L/V29E/W56N/T59Q/E61Y	-0.27 / -0.19 / -0.48 / -0.46 / -0.32 / -0.12	0 of 18
S25L/V29D/E32G/W56E	-0.01 / -0.10 / -0.21 / -0.37 / -0.18 / 0.05	1 of 18 (2.29)
S25V/S26Y/V29E/W56N/T59Q	0.14 / -0.05 / -0.07 / -0.01 / -0.04 / 0.35	1 of 18 (2.82)
K24I/S25L/V29E/W56N	-0.28 / 0.55 / -0.30 / -0.16 / 0.29 / -0.08	1 of 18 (2.03)
S25V/S28Q/V29H/W56Q	0.11 / -0.02 / -0.10 / -0.28 / -0.11 / 0.08	0 of 18
S25I/L30M/W56E	0.32 / 0.25 / 0.30 / 0.37 / 0.26 / 0.28	0 of 18
S25L/W56N/S62E	-0.46 / -0.65 / -0.36 / -0.58 / -0.27 / -0.19	0 of 18
S25L/V29Y/W56H	0.11 / -0.16 / -0.12 / -0.07 / -0.14 / -0.16	1 of 18 (3.56)
S25L/V29E/L30P/W56N/T59Q	-0.02 / -0.18 / -0.03 / -0.22 / -0.22 / 0.00	0 of 18
S25Q/S33D/W56N/T59Q	ND / 2.65 / 1.60 / 2.22 / 2.72 / 2.87	0 of 18
S25L/S26M/V29W/L30G/W56N/T59Q	0.15 / 0.12 / -0.05 / 0.11 / 0.18 / 0.21	1 of 18 (3.24)
S25L/S38N/W56N/Q96D	0.26 / -0.02 / -0.11 / -0.03 / 0.01 / 0.05	0 of 18
S25L/W56N/E61C/S62V	-0.25 / -0.32 / -0.36 / -0.48 / -0.25 / -0.18	0 of 18
S25L/S26P/L30G/W56N	-0.26 / -0.17 / -0.33 / -0.42 / -0.55 / -0.03	1 of 18 (2.44)
S25L/S26V/W56G	0.18 / 0.33 / 0.44 / 0.20 / -0.11 / 0.03	1 of 18 (2.45)

The last 6 entries again:

changes	log10 Kd, replicates	control signals
S25Q/S33D/W56N/T59Q	ND / 2.65 / 1.60 / 2.22 / 2.72 / 2.87	0 of 18
S25L/S26M/V29W/L30G/W56N/T59Q	0.15 / 0.12 / -0.05 / 0.11 / 0.18 / 0.21	1 of 18 (3.24)
S25L/S38N/W56N/Q96D	0.26 / -0.02 / -0.11 / -0.03 / 0.01 / 0.05	0 of 18
S25L/W56N/E61C/S62V	-0.25 / -0.32 / -0.36 / -0.48 / -0.25 / -0.18	0 of 18
S25L/S26P/L30G/W56N	-0.26 / -0.17 / -0.33 / -0.42 / -0.55 / -0.03	1 of 18 (2.44)
S25L/S26V/W56G	0.18 / 0.33 / 0.44 / 0.20 / -0.11 / 0.03	1 of 18 (2.45)